The numbers were not newly measured in patent publication EP0987023A1, “Transition metal complexes of non steroidal anti-inflammatory drugs” (PANACEA BIOTEC LIMITED, priority 1998, dated 2000), which cites them from elsewhere.

For series [1] the following is noted: collected values of NSAIDs; cited from earlier work.
In series [2] the test system is Cyclooxygenase 2/Cyclooxygenase 1. To be noted: cited from earlier work.

On to `CC(C)Cc1ccc(C(C)C(=O)O)cc1` (centres unmarked) [Ibuprofen], for which the “Therapeutic Index” value in series [1] is 68. For the same molecule, in series [2], the “Cyclooxygenase 2/Cyclooxygenase 1 ratio” value is recorded as 15.
